From PubChem BioAssay (NCI)
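Cultured in 96-well plates, cells were exposed to test compound for 48 hours across five concentrations. The concentration for 50% growth inhibition is given as GI50. TGI: concentration producing complete growth inhibition.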

Assays:
Experiment in all cases: DTP human tumour cell line panel, 48 h
[1] = test system: 786-0 renal
[2] = test system: A498 renal
[3] = test system: A549 NSCLC
[4] = test system: ACHN renal
[5] = test system: BT-549 breast
[6] = test system: CAKI-1 renal
[7] = test system: CCRF-CEM leukemia
[8] = test system: COLO 205 colon
[9] = test system: DU-145 prostate
[10] = test system: EKVX NSCLC
[11] = test system: HCC-2998 colon
[12] = test system: HCT-116 colon
[13] = test system: HCT-15 colon
[14] = test system: HL-60(TB) leukemia
[15] = test system: HOP-62 NSCLC
[16] = test system: HOP-92 NSCLC
[17] = test system: HS 578T breast
[18] = test system: HT29 colon
[19] = test system: K-562 leukemia
[20] = test system: KM12 colon
[21] = test system: LOX IMVI melanoma
[22] = test system: M14 melanoma
[23] = test system: MCF7 breast
[24] = test system: MDA-MB-231 breast
[25] = test system: MDA-MB-435
[26] = test system: MDA-N
[27] = test system: MOLT-4 leukemia
[28] = test system: NCI-H226 lung
[29] = test system: NCI-H23 lung
[30] = test system: NCI-H322M lung
[31] = test system: NCI-H460 lung
[32] = test system: NCI-H522 lung
[33] = test system: NCI/ADR-RES ovarian
[34] = test system: OVCAR-3 ovarian
[35] = test system: OVCAR-4 ovarian
[36] = test system: OVCAR-5 ovarian
[37] = test system: OVCAR-8 ovarian
[38] = test system: PC-3 prostate
[39] = test system: RPMI-8226 leukemia
[40] = test system: RXF 393 renal
[41] = test system: SF-268 CNS
[42] = test system: SF-295 CNS
[43] = test system: SF-539 CNS
[44] = test system: SK-MEL-2 melanoma
[45] = test system: SK-MEL-28 melanoma
[46] = test system: SK-MEL-5 melanoma
[47] = test system: SK-OV-3 ovarian
[48] = test system: SN12C renal
[49] = test system: SNB-75 CNS
[50] = test system: SR leukemia
[51] = test system: SW-620 colon
[52] = test system: T-47D breast
[53] = test system: TK-10 renal
[54] = test system: U251 CNS
[55] = test system: UACC-257 melanoma
[56] = test system: UACC-62 melanoma
[57] = test system: UO-31 renal

Compound `O=P1(N(CCCl)CCCl)Oc2ccc(Cl)cc2C(C(Cl)(Cl)Cl)O1` (centres undefined) has a GI50 [1] of 14.1 µM, a TGI [1] of 27.5 µM and a GI50 [2] of 17.5 µM. For the same compound, the TGI [2] was 31.3 µM, the GI50 [3] was 13.1 µM and the TGI [3] was 29.1 µM. For the same compound, the GI50 [4] was 14.6 µM, the TGI [4] was 28.2 µM and the GI50 [5] was 14.6 µM. For the same compound, the TGI [5] was 27.7 µM, the GI50 [6] was 19.2 µM and the TGI [6] was 34.3 µM. It also gave a GI50 [7] of 9.62 µM, a TGI [7] of 64.8 µM and a GI50 [8] of 17.7 µM. For the same compound, the TGI [8] was 31.5 µM, the GI50 [9] was 14.8 µM and the TGI [9] was 28 µM. It also gave a GI50 [10] of 17.3 µM, a TGI [10] of 31 µM and a GI50 [11] of 6.33 µM. It also gave a TGI [11] of 17.7 µM, a GI50 [12] of 12.8 µM and a TGI [12] of 25.4 µM. It also gave a GI50 [13] of 13.7 µM, a TGI [13] of 27 µM and a GI50 [14] of 5.52 µM. The TGI [14] was > 100 µM, the GI50 [15] was 12.1 µM and the TGI [15] was 24.6 µM. For the same compound, the GI50 [16] was 15.3 µM, the TGI [16] was 29.3 µM and the GI50 [17] was 25 µM. It also gave a TGI [17] of 92.8 µM, a GI50 [18] of 14.4 µM and a TGI [18] of 31.2 µM. For the same compound, the GI50 [19] was 4.53 µM, the TGI [19] was 65.5 µM and the GI50 [20] was 14.2 µM. The TGI [20] was 27.4 µM, the GI50 [21] was 13 µM and the TGI [21] was 26.8 µM. For the same compound, the GI50 [22] was 15.6 µM, the TGI [22] was 29 µM and the GI50 [23] was 13.1 µM. It also gave a TGI [23] of 26 µM, a GI50 [24] of 19.9 µM and a TGI [24] of 38.7 µM. The GI50 [25] was 11.9 µM, the TGI [25] was 24.2 µM and the GI50 [26] was 10.6 µM. It also gave a TGI [26] of 22.5 µM, a GI50 [27] of 9.54 µM and a TGI [27] of 56.2 µM. For the same compound, the GI50 [28] was 16.5 µM, the TGI [28] was 31.8 µM and the GI50 [29] was 15.1 µM. It also gave a TGI [29] of 30.6 µM, a GI50 [30] of 15.7 µM and a TGI [30] of 29.3 µM. It also gave a GI50 [31] of 12.9 µM, a TGI [31] of 26.2 µM and a GI50 [32] of 12.4 µM. For the same compound, the TGI [32] was 25.5 µM, the GI50 [33] was 12.7 µM and the TGI [33] was 29.2 µM. The GI50 [34] was 14.4 µM, the TGI [34] was 27.5 µM and the GI50 [35] was 16.9 µM. The TGI [35] was 39.3 µM, the GI50 [36] was 24.4 µM and the TGI [36] was 39.7 µM. It also gave a GI50 [37] of 14.3 µM, a TGI [37] of 27.5 µM and a GI50 [38] of 11.8 µM. It also gave a TGI [38] of 24.3 µM, a GI50 [39] of 5.98 µM and a TGI [39] of 54.3 µM. The GI50 [40] was 14.9 µM, the TGI [40] was 30.8 µM and the GI50 [41] was 15.9 µM. For the same compound, the TGI [41] was 30 µM, the GI50 [42] was 13 µM and the TGI [42] was 25.9 µM. The GI50 [43] was 17.3 µM, the TGI [43] was 31.2 µM and the GI50 [44] was 17.7 µM. The TGI [44] was 33 µM, the GI50 [45] was 16.9 µM and the TGI [45] was 30.9 µM. It also gave a GI50 [46] of 11.3 µM, a TGI [46] of 23.6 µM and a GI50 [47] of 14.9 µM. For the same compound, the TGI [47] was 28.1 µM, the GI50 [48] was 15.2 µM and the TGI [48] was 28.9 µM. It also gave a GI50 [49] of 12.7 µM, a TGI [49] of 27.8 µM and a GI50 [50] of 5.26 µM. The TGI [50] was > 100 µM, the GI50 [51] was 14.7 µM and the TGI [51] was 28.3 µM. It also gave a GI50 [52] of 20.9 µM, a TGI [52] of 42.4 µM and a GI50 [53] of 21.9 µM. For the same compound, the TGI [53] was 36.4 µM, the GI50 [54] was 18.3 µM and the TGI [54] was 32.2 µM. It also gave a GI50 [55] of 14.8 µM, a TGI [55] of 28.1 µM and a GI50 [56] of 11.2 µM. For the same compound, the TGI [56] was 23.7 µM, the GI50 [57] was 14.8 µM and the TGI [57] was 28 µM.
